Biological target: recombinant human CHIT1 (Homo sapiens (Human), UniProt Q13231)
Assay: Human CHIT1 Activity Assay
Format: biochemical
Conditions: read-out: Activity on hCHIT1, IC50; recombinant human CHIT1, citrate buffer pH 5.2, 37° C., 60 minutes

Protein sequences, listed by entry. Tags and fused reporters are not part of them. Residues count along the entry.
UniProt Q13231, 22-466: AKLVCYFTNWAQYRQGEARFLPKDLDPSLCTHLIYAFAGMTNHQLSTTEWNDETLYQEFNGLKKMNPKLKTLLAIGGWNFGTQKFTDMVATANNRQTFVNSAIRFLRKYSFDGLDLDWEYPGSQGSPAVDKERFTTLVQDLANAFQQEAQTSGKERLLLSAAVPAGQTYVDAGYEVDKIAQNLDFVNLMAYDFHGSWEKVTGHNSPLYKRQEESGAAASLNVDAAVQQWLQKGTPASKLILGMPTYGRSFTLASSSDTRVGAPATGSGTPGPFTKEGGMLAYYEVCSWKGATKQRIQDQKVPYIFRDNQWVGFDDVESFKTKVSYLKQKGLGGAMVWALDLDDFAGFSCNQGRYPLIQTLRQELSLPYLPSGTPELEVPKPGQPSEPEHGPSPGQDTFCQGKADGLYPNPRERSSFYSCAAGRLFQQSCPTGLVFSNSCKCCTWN

SMILES: NC(=O)[C@H]1CN(C2CCN(c3nnc(N)[nH]3)CC2)[C@@H](Cc2ccc(Cl)cc2)CO1 [Example 9, (2R,5S)-4-(1-(5-amino-4H-1,2,4-triazol-3-yl)piperidin-4-yl)-5-(4-chlorobenzyl)morpholine-2-carboxamide]
- IC50: < 100 nM
